pKi: −log10 of the molar value.
Target: CES2 (Homo sapiens, UniProt O00748)

Sequences of proteins named here, by UniProt entry; tags and fusion partners are left off. A change or cut given only in a name is not applied to a line headed by its entry.
UniProt O00748: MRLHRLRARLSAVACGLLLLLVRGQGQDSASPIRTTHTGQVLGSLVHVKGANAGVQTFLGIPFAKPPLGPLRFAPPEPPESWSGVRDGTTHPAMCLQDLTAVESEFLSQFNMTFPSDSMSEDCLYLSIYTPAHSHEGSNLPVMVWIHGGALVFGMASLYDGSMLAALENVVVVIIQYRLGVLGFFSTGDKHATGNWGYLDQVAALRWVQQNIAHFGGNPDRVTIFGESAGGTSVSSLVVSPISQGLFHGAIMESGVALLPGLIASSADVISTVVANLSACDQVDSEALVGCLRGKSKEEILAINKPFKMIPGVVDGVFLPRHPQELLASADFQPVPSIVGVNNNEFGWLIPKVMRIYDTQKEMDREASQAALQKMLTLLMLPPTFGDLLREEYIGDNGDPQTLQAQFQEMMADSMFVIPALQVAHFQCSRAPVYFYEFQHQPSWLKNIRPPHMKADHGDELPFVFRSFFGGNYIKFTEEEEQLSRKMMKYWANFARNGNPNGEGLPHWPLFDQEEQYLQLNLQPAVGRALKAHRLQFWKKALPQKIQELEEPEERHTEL

pKi: 5.81
Structure (SMILES): O=C1C(=O)N(CCN2C(=O)C(=O)c3ccccc32)c2ccccc21 [1-[2-(2,3-dioxo-2,3-dihydro-1H-indol-1-yl)ethyl]-2,3-dihydro-1H-indole-2,3-dione]

Source: BindingDB's records for doi:10.1021/jm061471k (St. Jude Research Hospital, 2007)
